## Apparent affinities of Ab-14 variants for a coronavirus HR2 peptide

The measurements come from Engelhart et al. 2022 (doi:10.1038/s41597-022-01779-4) through the FLAb antibody collection.

The target is the same throughout: PDVDLGDISGINAS, from the HR2 region of SARS-CoV-2 spike.

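The parent was found by panning a naive human phage display library on the peptide. Variants in AAYL50 differ from the parent at up to three CDR positions; double and triple changes were sampled at random. The scFvs were displayed on barcoded MATa yeast, the peptide on MATalpha yeast. Mating (16 h, 30 °C) was followed by selection of diploids and sequencing of their barcodes. Each replicate has its own calibration line, from reference interactions of the BCL2 family. Each pool was mated in three replicate cultures.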

The variants keep the heavy chain, the linker and the frameworks of Ab-14 (scFv order VH, the linker GGGGSGGGGSGGGGS, VL).
VH: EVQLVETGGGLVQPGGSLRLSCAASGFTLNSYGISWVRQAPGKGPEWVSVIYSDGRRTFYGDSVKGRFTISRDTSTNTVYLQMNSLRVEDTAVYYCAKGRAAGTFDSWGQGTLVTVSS
VL: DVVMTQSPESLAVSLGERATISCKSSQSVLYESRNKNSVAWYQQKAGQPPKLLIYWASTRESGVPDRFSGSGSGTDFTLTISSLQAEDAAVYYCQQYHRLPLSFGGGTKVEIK

Each variant is given by its three light chain CDRs, as the data file delimits them; those of the parent are KSSQSVLYESRNKNSVA, WASTRES, QQYHRLPLS.
Every variant below is changed at S38 of the VL (sequential numbering).
Kd is apparent (estimated from mating counts) and averaged on the log scale over replicates with a signal. Smaller is tighter.
Where no diploid with the target was found in any replicate, the entry reads "no signal": below detection, most likely a poor binder, though not proof of it.
As a blank, each scFv also met three strains without target: over library AAYL50, 18% of these pairings were detected, typically at 15 µM and seldom below 970 nM. For each scFv, signals with the empty controls are counted beside the result.

CDR-L1,CDR-L2,CDR-L3,Kd,replicates with signal,control signals
KSSQSTLYESRNKNWVA,WASTRWS,QQYHRLPLS,7.4 µM,1/3,0/9
KSSQSVLYESRNKNMVA,WASTRFR,QQYHRLPLS,3.0 µM,2/3,1/9
KSSQSVLYESRNKNHVA,VASTKES,QQYHRLPLS,no signal,0/3,0/9
KSSQPVLYESRNKNHVA,WASTRCS,QQYHRLPLS,110 nM,3/3,2/9
KSSQSVLYESRNKNVVG,WQSTRES,QQYHRLPLS,29 µM,2/3,3/9
KSSYSVLYESRNCNNVA,WASTRES,QQYHRLPLS,6.5 nM,3/3,2/9
KSSQSVLYESRNKNGVA,WASTREG,QQYHPLPLS,3.8 µM,1/3,1/9
KSSQSVLYESRNKNLVA,WANTRNS,QQYHRLPLS,no signal,0/3,0/9
KSSQSVLYESRNKNCVA,WASTMES,QQYHALPLS,2.2 µM,1/3,1/9
KSSQSVLYEWRNKNKVA,WASTRES,QQYHRLPLS,440 nM,1/3,1/9
KSSQSVLYESRNENIVA,WASTRES,QQYERLPLS,no signal,0/3,0/9
KHSQSYLYESRNKNYVA,WASTRES,QQYHRLPLS,100 nM,3/3,0/9
KSSQSVQYESRNKNCVA,WASTRES,QLYHRLPLS,860 nM,2/3,0/9
KSSASVLYESRNKNRVA,WASTRES,QHYHRLPLS,no signal,0/3,0/9
KSSQSVLKESRNKNEVA,WASTRES,QQYHQLPLS,2.2 µM,3/3,3/9
VSSQSVLYESRNKNIVA,WASTRES,QQYHRLPPS,7.8 µM,1/3,4/9
KSSQSVLYESQNKMCVA,WASTRES,QQYHRLPLS,no signal,0/3,0/9
KKSQSVLPESRNKNEVA,WASTRES,QQYHRLPLS,1.8 µM,3/3,1/9
KSSQHVLYESRNKNGVA,WASLRES,QQYHRLPLS,2.4 µM,2/3,3/9
KSSQSVLYESDNKNQVA,WASTRES,QQYHFLPLS,3.0 µM,2/3,2/9
KSSQSVLYESNNKNCVA,WASTRGS,QQYHRLPLS,120 nM,3/3,1/9
KSSQSVLYESRNKNLVA,WAWTRES,QQYHRLPPS,300 µM,1/3,5/9
KSSQEVLYESRNKNKVA,WASTTES,QQYHRLPLS,no signal,0/3,2/9
KSSQSVLYESRNKGAVA,WASTREN,QQYHRLPLS,5.0 nM,3/3,3/9
KSSQSVLYESRNKSDVA,WASTRES,QQQHRLPLS,no signal,0/3,1/9
WSSQSVLYESRNKNIVA,WASTRES,QQYHRLQLS,240 µM,2/3,3/9
KSSQSVLYESKNKNQVA,WNSTRES,QQYHRLPLS,1.1 µM,1/3,0/9
KSSQSVLYESRNKNIVA,IASTREH,QQYHRLPLS,no signal,0/3,2/9
KSSQSVLYESRNKNTVA,WAYTRES,TQYHRLPLS,no signal,0/3,0/9
KSSQSVLYESRNKNAVI,WASTGES,QQYHRLPLS,no signal,0/3,3/9
KSSQSVLYEYRNKNYMA,WASTRES,QQYHRLPLS,270 nM,1/3,1/9
KDSQSVLYESRNKNDVA,WASTRES,QQYHWLPLS,45 nM,3/3,3/9
KSSQSNLYESRNKNPVA,WASTRES,QQYHFLPLS,240 µM,2/3,3/9
KSSQSVLYESRNKNGVA,WADTRHS,QQYHRLPLS,320 nM,3/3,1/9
KSSQSVLYESRNKNPVA,WASKRES,QQYHRFPLS,84 nM,1/3,0/9
KSSQSVLYQSRNKNLVA,WASTRES,QQYHRLLLS,11 µM,1/3,5/9
KSSQSVLYESRNKNKVD,WASTMES,QQYHRLPLS,no signal,0/3,0/9
KSSQSILYESRNKIYVA,WASTRES,QQYHRLPLS,no signal,0/3,0/9
KSSQTVLYSSRNKNDVA,WASTRES,QQYHRLPLS,2.3 nM,3/3,5/9
KSSQSVLYESRNKNCVA,WASLRES,QQYHRLPLS,70 nM,3/3,1/9
KSSQSVLYESRNKNAVC,WASTRES,QQYHRLPLS,24 nM,2/3,0/9
KSSQSVLYESRNKNRYA,WASTRES,QQVHRLPLS,4.1 µM,2/3,1/9
KSSQSVLYESRNKTGVA,WASTRES,YQYHRLPLS,6.4 µM,3/3,2/9
KSSQSVLYESRNKNPVA,WASTYES,YQYHRLPLS,no signal,0/3,2/9
KSSQSVYYESRNKNKVA,WASTRES,NQYHRLPLS,no signal,0/3,0/9
KSPSSVLYESRNKNNVA,WASTRES,QQYHRLPLS,24 µM,3/3,7/9
KSSQSVLYESRNKNDVA,AASTRES,QQYHRLPLG,6.7 nM,3/3,2/9

Extract of 3 entries:

| CDR-L1 | CDR-L2 | CDR-L3 | Kd | replicates with signal | control signals |
|---|---|---|---|---|---|
| KSSQSVLYESRNKNIVA | IASTREH | QQYHRLPLS | no signal | 0/3 | 2/9 |
| KSPSSVLYESRNKNNVA | WASTRES | QQYHRLPLS | 24 µM | 3/3 | 7/9 |
| WSSQSVLYESRNKNIVA | WASTRES | QQYHRLQLS | 240 µM | 2/3 | 3/9 |